Test results published in PMC4803471 (Anesthesiology, 2016).

Test: Octanol:water partition coefficient determination
Type: physicochemical
Conditions: mean ± SD

4-Pyridine carboetomidate [Compound 7]
Octanol:Buffer Partition Coefficient: 753 ± 63
